Measured values from patent EP1903056A2, “HLA-A1, -A2 -A3, -A24, -B7, and -B44 tumor associated antigen peptides and compositions” (priority 2002, dated 2004).

Key:
B*4002 (B61) = B*4002 (B61) (Homo sapiens, UniProt P01889, A65T/A93T/A95T/D138N/D201E/D98Y/E176V/E204Q/E69K/K202T/N87E/Q56L/Q94N/R180L/S48T/Y33H/Y91S); assay: B44 supertype peptide binding, B*4002
B*4402 = B*4402 (Homo sapiens, UniProt P01889, A223V/A65T/A93T/A95T/D201E/D98Y/E176V/E187L/E204Q/E69K/G107R/H137Y/K202T/L105A/L119I/N104T/N87E/Q56L/Q94N/R106L/R155S/R180D/S101N/S121R/S35A/S48T/T118I/V36M/W191S/Y140D/Y91S); assay: B44 supertype peptide binding, B*4402
B*4001(B60) = B*4001(B60) (Homo sapiens, UniProt P01889, A65T/A93T/A95T/D138N/D98Y/E176V/E69K/N87E/Q56L/Q94N/R180L/S121R/S35A/S48T/T167S/V36M/W171L/Y33H/Y91S); assay: B44 supertype peptide binding, B*4001
B*4403 = B*4403 (Homo sapiens, UniProt P01889, A223V/A65T/A93T/A95T/D201E/D98Y/E176V/E187L/E204Q/E69K/G107R/H137Y/K202T/L105A/L119I/N104T/N87E/Q56L/Q94N/R106L/R155S/R180L/S101N/S121R/S35A/S48T/T118I/V36M/W191S/Y140D/Y91S); assay: B44 supertype peptide binding, B*4403
B*1801 = B*1801 (Homo sapiens, UniProt P01889, A329T/A93T/A95T/C349S/D201E/D54G/D98Y/E176V/E187T/E204Q/E69T/K202T/Q94N/R155S/R180L/S121R/V306I/Y140S/Y195H/Y33H/Y91S); assay: B44 supertype peptide binding, B*1801
B*4501 = B*4501 (Homo sapiens, UniProt P01889, A329T/A65T/A93T/A95T/C349S/D138N/D201E/D98Y/E176V/E187L/E204Q/E69K/H137Y/K202T/L119W/N87E/Q56L/Q94N/R155S/R180D/S121R/S35A/S48T/V127L/V306I/V36M/W191S/Y140L/Y33H/Y91S); assay: B44 supertype peptide binding, B*4501
[1] = HER 2/neu-derived B44 peptides, Table 27, read-out: B* 4002
[2] = HER 2/neu-derived B44 peptides, Table 27, read-out: B* 4402
[3] = HER 2/neu-derived B44 peptides, Table 27, read-out: B* 4001
[4] = HER 2/neu-derived B44 peptides, Table 27, read-out: B* 4403
[5] = HER 2/neu-derived B44 peptides, Table 27
[6] = CEA-derived B44 peptides, binding affinity, unit inferred, read-out: B* 4002
[7] = CEA-derived B44 peptides, binding affinity, unit inferred, read-out: B* 4001
[8] = CEA-derived B44 peptides, binding affinity, unit inferred, read-out: B* 4501
[9] = CEA-derived B44 peptides, binding affinity, unit inferred, read-out: B* 4403
[10] = HER 2/neu-derived B44 peptides, Table 27, read-out: B* 4501

| SMILES | IC50 (B*4002 (B61); [1]) | IC50 (B*4402; [2]) | IC50 (B*4001(B60); [3]) | IC50 (B*4403; [4]) | IC50 (B*1801; [5]) | other results |
| --- | --- | --- | --- | --- | --- | --- |
| CC[C@H](C)[C@H](NC(=O)[C@H](CCCCN)NC(=O)[C@H](CCCCN)NC(=O)[C@H](CS)NC(=O)CNC(=O)[C@H](C)NC(=O)[C@H](Cc1ccccc1)NC(=O)[C@H](CCC(=O)O)NC(=O)[C@@H](N)CCC(N)=O)C(=O)N[C@@H](Cc1ccccc1)C(=O)O | 0.012 µM | 0.004 µM | 3690 nM | 3.6 nM | 53 nM | – |
| CC[C@H](C)[C@H](NC(=O)[C@H](CCC(=O)O)NC(=O)[C@@H]1CCCN1C(=O)[C@H](CCC(=O)O)NC(=O)[C@@H](N)CS)C(=O)N[C@@H](CCC(N)=O)C(=O)N[C@@H](CC(N)=O)C(=O)N[C@H](C(=O)N[C@H](C(=O)N[C@@H](Cc1ccc(O)cc1)C(=O)N[C@@H](CC(C)C)C(=O)N[C@@H](Cc1c[nH]c2ccccc12)C(=O)N[C@@H](Cc1c[nH]c2ccccc12)C(=O)O)[C@@H](C)O)[C@@H](C)O [compound 401] | – | – | – | – | – | IC50 (B*4002 (B61); [6]): 3.59 µM; IC50 (B*4001(B60); [7]): 1030 nM; IC50 (B*4501; [8]): 865 nM; IC50 (B*4403; [9]): 508 nM; IC50 (B*1801; CEA-derived B44 peptides, binding affinity, unit inferred): 204 nM |
| CC(C)C[C@H](NC(=O)[C@H](Cc1ccc(O)cc1)NC(=O)[C@@H](NC(=O)[C@@H](NC(=O)[C@H](CC(N)=O)NC(=O)[C@H](CCC(N)=O)NC(=O)[C@H](C)NC(=O)[C@H](CCC(=O)O)NC(=O)[C@@H]1CCCN1)[C@@H](C)O)[C@@H](C)O)C(=O)N[C@@H](Cc1c[nH]c2ccccc12)C(=O)O [compound 415] | – | – | – | – | – | IC50 (B*4002 (B61); [6]): > 10 µM; IC50 (B*4001(B60); [7]): > 10000 nM; IC50 (B*4501; [8]): > 10000 nM; IC50 (B*4403; [9]): > 10000 nM |
| CSCC[C@H](N)C(=O)N[C@@H](CCC(=O)O)C(=O)N[C@@H](CC(C)C)C(=O)N[C@@H](C)C(=O)N[C@@H](C)C(=O)N[C@@H](CC(C)C)C(=O)N[C@@H](CS)C(=O)N[C@@H](CCCNC(=N)N)C(=O)N[C@@H](Cc1c[nH]c2ccccc12)C(=O)NCC(=O)N[C@@H](CC(C)C)C(=O)O [compound 430] | 0.03 µM | 0.017 µM | 24 nM | 0.92 nM | 6.4 nM | – |
| CC[C@H](C)[C@H](NC(=O)[C@@H]1CCCN1C(=O)[C@@H]1CCCN1C(=O)[C@H](CCC(N)=O)NC(=O)[C@@H]1CCCN1C(=O)[C@H](CC(C)C)NC(=O)[C@H](CCCNC(=N)N)NC(=O)[C@H](CCC(=O)O)NC(=O)CN)C(=O)O [compound 437] | – | 0.027 µM | 71 nM | 1.1 nM | 62 nM | IC50 (B*4501; [10]): 15 nM |
| CC(C)C[C@H](NC(=O)[C@H](CCC(N)=O)NC(=O)[C@H](CC(C)C)NC(=O)[C@H](CCC(=O)O)NC(=O)[C@@H](N)CCCNC(=N)N)C(=O)N[C@@H](CCCNC(=N)N)C(=O)N[C@@H](CO)C(=O)N[C@@H](CC(C)C)C(=O)N[C@H](C(=O)O)[C@@H](C)O [compound 450] | 0.013 µM | 0.465 µM | – | 0.2 nM | 638 nM | – |
| CSCC[C@H](NC(=O)[C@@H](NC(=O)[C@H](Cc1ccc(O)cc1)NC(=O)[C@H](C)NC(=O)[C@H](CCC(=O)O)NC(=O)[C@@H](N)CC(=O)O)C(C)C)C(=O)N[C@@H](C)C(=O)NCC(=O)N[C@H](C(=O)O)C(C)C [compound 517] | 1.25 µM | 8.01 µM | – | 138 nM | – | IC50 (B*4501; [10]): 161 nM |
| CC[C@H](C)[C@H](NC(=O)[C@@H]1CCCN1C(=O)[C@H](CS)NC(=O)[C@@H]1CCCN1C(=O)[C@H](CCC(N)=O)NC(=O)[C@H](CS)NC(=O)[C@H](C)NC(=O)CNC(=O)[C@H](CCC(=O)O)NC(=O)[C@H](CCC(=O)O)NC(=O)[C@@H](N)CC(=O)O)C(=O)O [compound 528] | – | – | – | – | – | IC50 (B*4002 (B61)): 7.29 µM; IC50 (B*4402): 0.968 µM; IC50 (B*4001(B60)): 5520 nM; IC50 (B*4501): 1320 nM; IC50 (B*4403): 438 nM |
| CC(C)C[C@H](NC(=O)[C@@H]1CCCN1C(=O)[C@H](CCC(=O)O)NC(=O)[C@@H](N)C(C)C)C(=O)N[C@H](C(=O)N1CCC[C@H]1C(=O)N[C@@H](CO)C(=O)NCC(=O)N[C@@H](C)C(=O)O)[C@@H](C)O [compound 530] | – | 8.52 µM | – | 191 nM | 7320 nM | – |
| CC(C)C[C@H](NC(=O)[C@H](CCC(=O)O)NC(=O)[C@@H](NC(=O)[C@H](CCC(=O)O)NC(=O)[C@@H](N)CCCCN)[C@@H](C)O)C(=O)N[C@@H](CCCNC(=N)N)C(=O)N[C@@H](CCCCN)C(=O)N[C@H](C(=O)N[C@@H](CCCCN)C(=O)N[C@H](C(=O)O)C(C)C)C(C)C [compound 531] | – | 2.94 µM | – | 15 nM | 11900 nM | IC50 (B*4501; [10]): 1600 nM |
| CSCC[C@H](NC(=O)[C@H](CC(=O)O)NC(=O)[C@H](CC(=O)O)NC(=O)[C@H](CC(=O)O)NC(=O)[C@H](CCC(=O)O)NC(=O)[C@@H](N)CC(C)C)C(=O)NCC(=O)N[C@@H](CC(=O)O)C(=O)N[C@@H](CC(C)C)C(=O)O [compound 536] | – | – | 556 nM | 900 nM | 191 nM | – |
| CC(C)C[C@H](NC(=O)[C@H](Cc1ccc(O)cc1)NC(=O)[C@H](CCC(=O)O)NC(=O)[C@H](CCC(=O)O)NC(=O)[C@H](C)N)C(=O)N[C@H](C(=O)N1CCC[C@H]1C(=O)N[C@@H](CCC(N)=O)C(=O)N[C@@H](CCC(N)=O)C(=O)NCC(=O)O)C(C)C [compound 537] | – | – | – | 479 nM | 723 nM | – |
| CC(C)C[C@H](NC(=O)[C@@H]1CCCN1C(=O)[C@H](CO)NC(=O)[C@H](CCCNC(=N)N)NC(=O)[C@@H]1CCCN1C(=O)[C@H](C)NC(=O)[C@H](CCC(=O)O)NC(=O)[C@H](CCC(=O)O)NC(=O)[C@H](CCC(=O)O)NC(=O)[C@@H](N)CO)C(=O)N[C@@H](C)C(=O)O [compound 538] | 5.11 µM | 8.55 µM | – | 158 nM | 1320 nM | – |
| CSCC[C@H](NC(=O)[C@H](CC(=O)O)NC(=O)[C@H](CC(C)C)NC(=O)[C@H](Cc1c[nH]cn1)NC(=O)[C@@H](NC(=O)[C@H](CCC(=O)O)NC(=O)[C@@H]1CCCN1)[C@@H](C)O)C(=O)N[C@@H](CC(C)C)C(=O)N[C@@H](CCCNC(=N)N)C(=O)N[C@@H](Cc1c[nH]cn1)C(=O)N[C@@H](CC(C)C)C(=O)O [compound 543] | – | 11.5 µM | 700 nM | 70 nM | 1320 nM | IC50 (B*4501; [10]): 4330 nM |
| CC(C)[C@H](NC(=O)[C@H](CO)NC(=O)CNC(=O)[C@H](CC(N)=O)NC(=O)[C@H](CCC(N)=O)NC(=O)[C@@H]1CCCN1C(=O)[C@H](CCC(N)=O)NC(=O)[C@H](CS)NC(=O)[C@H](CCC(=O)O)NC(=O)[C@@H]1CCCN1)C(=O)O [compound 557] | – | – | – | 472 nM | 7960 nM | – |
| CC(C)C[C@H](NC(=O)[C@H](CCC(=O)O)NC(=O)[C@@H](N)[C@@H](C)O)C(=O)N[C@H](C(=O)N[C@@H](CCC(=O)O)C(=O)N1CCC[C@H]1C(=O)N[C@@H](CC(C)C)C(=O)N[C@H](C(=O)N1CCC[C@H]1C(=O)N[C@@H](CO)C(=O)NCC(=O)O)[C@@H](C)O)C(C)C [compound 558] | – | – | 2980 nM | 269 nM | 601 nM | IC50 (B*4501; [10]): 14100 nM |
| C[C@H](NC(=O)[C@H](Cc1c[nH]cn1)NC(=O)[C@H](Cc1ccc(O)cc1)NC(=O)[C@H](CCC(=O)O)NC(=O)[C@@H](NC(=O)[C@H](CCC(=O)O)NC(=O)[C@@H](N)CC(=O)O)[C@@H](C)O)C(=O)N[C@@H](CC(=O)O)C(=O)NCC(=O)NCC(=O)O [compound 563] | 16.8 µM | 3.89 µM | – | 269 nM | 613 nM | – |
| C[C@H](NC(=O)[C@H](CCC(=O)O)NC(=O)[C@H](CC(=O)O)NC(=O)[C@@H]1CCCN1C(=O)CNC(=O)[C@@H]1CCCN1C(=O)[C@H](CC(=O)O)NC(=O)[C@H](CCC(=O)O)NC(=O)[C@@H](N)[C@@H](C)O)C(=O)O [compound 639] | – | – | – | – | – | IC50 (B*4002 (B61); Table 28: p53-derived B44 peptides, read-out: B* 4002): > 10 µM; IC50 (B*4402; Table 28: p53-derived B44 peptides, read-out: B* 4402): 8.03 µM; IC50 (B*4001(B60); Table 28: p53-derived B44 peptides, read-out: B* 4001): 1220 nM; IC50 (B*4501): 1790 nM; IC50 (B*4403; Table 28: p53-derived B44 peptides, read-out: B* 4403): 2760 nM |

Where two headings read alike, the source gives them in different places.
